Target: T1, Aurora kinase A (Homo sapiens, UniProt O14965)
T1 sequence (O14965 whole entry): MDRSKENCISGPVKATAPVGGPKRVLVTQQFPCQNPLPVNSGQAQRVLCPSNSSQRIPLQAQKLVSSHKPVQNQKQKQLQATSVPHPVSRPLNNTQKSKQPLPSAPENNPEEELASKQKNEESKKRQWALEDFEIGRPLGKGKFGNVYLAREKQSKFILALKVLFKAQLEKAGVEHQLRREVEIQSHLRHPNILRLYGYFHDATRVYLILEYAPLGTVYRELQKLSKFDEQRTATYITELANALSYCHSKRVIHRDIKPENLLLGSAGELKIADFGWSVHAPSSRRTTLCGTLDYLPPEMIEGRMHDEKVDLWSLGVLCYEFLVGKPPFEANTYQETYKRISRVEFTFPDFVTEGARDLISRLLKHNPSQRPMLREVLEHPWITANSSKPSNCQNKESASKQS
Test: Inhibition of recombinant auroraA preincubated for 15 mins by HTRF assay

IC50: 1000 nM
Structure (SMILES): O=C1Nc2ccc([N+](=O)[O-])cc2/C1=C1/Nc2ccc(O)cc2/C1=N/O

Reference: ChEMBL document CHEMBL1157914, “5,5'-substituted indirubin-3'-oxime derivatives as potent cyclin-dependent kinase inhibitors with anticancer activity” (J Med Chem, 2010)
